# Columns and labels:
# Chains of the proteins cited; added tags and fusions are not shown.
# UniProt P21397, whole entry: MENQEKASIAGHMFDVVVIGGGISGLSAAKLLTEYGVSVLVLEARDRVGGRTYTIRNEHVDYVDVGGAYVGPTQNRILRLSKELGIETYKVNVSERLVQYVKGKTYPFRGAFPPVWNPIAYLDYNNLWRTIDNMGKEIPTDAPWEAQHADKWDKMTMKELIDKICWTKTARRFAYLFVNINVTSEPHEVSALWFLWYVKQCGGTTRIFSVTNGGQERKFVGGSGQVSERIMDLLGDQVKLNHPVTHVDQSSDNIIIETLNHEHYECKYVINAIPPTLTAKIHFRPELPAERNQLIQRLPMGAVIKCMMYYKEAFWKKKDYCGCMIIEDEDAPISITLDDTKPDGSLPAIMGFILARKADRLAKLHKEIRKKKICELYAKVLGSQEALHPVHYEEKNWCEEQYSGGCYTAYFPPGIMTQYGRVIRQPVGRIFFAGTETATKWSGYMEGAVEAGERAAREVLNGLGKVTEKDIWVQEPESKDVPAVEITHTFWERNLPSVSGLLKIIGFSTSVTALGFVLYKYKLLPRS
# MAO-A [1] = conditions: read-out: MAO-A Ki (rat); rat mitochondria; ref Fowler et al. [34]; cited from earlier work
# MAO-A [2] = target: T1, MAO-A (Homo sapiens, UniProt P21397); assay: Time-dependent inactivation, Kitz-Wilson analysis
# MAO-A [3] = target: T1, MAO-A; assay: IC50 after 30 min preincubation, coupled assay with saturating substrate
# MAO-A [4] = target: T1, MAO-A; assay: biochemical
SMILES,Ki (MAO-A [1]),Ki (MAO-A [2]),IC50 (MAO-A [3]),kinact (MAO-A [2]; read-out: MAO-A kinact),kinact/KI (MAO-A [2]; read-out: MAO-A kinact/KI),IC50 (MAO-A [4])
C#CCN(C)Cc1ccccc1 [Pargyline],15 µM,22 µM,2.47 ± 0.28 µM,–,–,–
NNCCc1ccccc1 [Phenelzine],–,3.13 µM,4.5 ± 0.72 µM,0.002 s⁻¹,638 M⁻¹ s⁻¹,52.7 µM

# From PMC7763263 (2020)
